Reference: patent US9956229B2, “Acyclic cucurbit[n]uril type molecular containers to treat intoxication and decrease relapse rate in substance abuse disorders” (UNIVERSITY OF MARYLAND, COLLEGE PARK, priority 2014, dated 2018)

Conditions: CB[7] 500.2 μM, TMSP 600.6 μM, methamphetamine 598.7 μM, sample determination

SMILES: O=C1N2CN3C(=O)N4CN5C(=O)N6CN7C(=O)N8CN9C(=O)N%10CN%11C(=O)N%12CN%13C(=O)N%14CN1C1C2N2CN%15C(=O)N(CN%16C(=O)N(CN%17C(=O)N(CN%18C(=O)N(CN%19C(=O)N(CN%20C(=O)N(CN1C2=O)C%14C%13%20)C%12C%11%19)C%10C9%18)C8C7%17)C6C5%16)C4C3%15 (stereo not shown) [CB[7], cucurbit[7]uril]
- Krel (methamphetamine versus TMSP for CB[7]): 6.72
